Assay results published in patent US20240245793A1 (UNIVERSITY OF COPENHAGEN, published 2024).
Read-outs that look alike come from different tables or passages of the source.

The chains behind the UniProt entries cited, without tags or fusion partners. Residues count along the entry.
UniProt P78352, 61-249 limits assumed: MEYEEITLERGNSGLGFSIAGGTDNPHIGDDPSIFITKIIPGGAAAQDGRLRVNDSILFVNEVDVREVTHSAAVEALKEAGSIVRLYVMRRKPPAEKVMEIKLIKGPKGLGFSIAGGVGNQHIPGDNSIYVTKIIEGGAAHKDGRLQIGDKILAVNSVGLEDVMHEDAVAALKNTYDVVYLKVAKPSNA

B1: compound 35, NPEG4-(IETDV)2 fused to L-Arg9 (Ac-RRRRRRRRR-) (peptide)
peptide: IETDV
chain: RRRRRRRRR
modifications: N-terminal acetyl (Ac); C-terminus linked to the nitrogen of the NPEG4 linker; N-terminus joined to the NPEG4 linker that bridges the two copies
notes: Branched compound CPP-NPEG4-(P1)(P2), formula (XXVIII); also called formula (XXIII)
B2: compound 46, NPEG4-(IETDV)2 fused to L-Pen (Ac-RQIKIWFQNRRMKWKK-) (peptide)
peptide: IETDV
chain: RQIKIWFQNRRMKWKK
modifications: N-terminal acetyl (Ac); C-terminus linked to the nitrogen of the NPEG4 linker; N-terminus joined to the NPEG4 linker that bridges the two copies
notes: Branched compound CPP-NPEG4-(P1)(P2), formula (XXVIII)

How the values were obtained:
[1] = target: T1, PDZ1-2 of PSD-95 (postsynaptic density protein-95) (UniProt P78352 61-249, limits assumed); assay: FP competition against fluorescent dimeric probe, Ki from IC50
T1 construct: domain: PDZ1-2; also called PSD-95 PDZ1-2; PSD-95 PDZ12

[2] = target: T1, PDZ1-2 of PSD-95 (postsynaptic density …); assay: as above; remark: listed apart in the source

Row | Binder | Ki [1] | Ki [2]
1 | B1 | 16 nM | 11 nM
2 | B2 | – | 11.3 nM
